Test results taken from patent US20030083469A1, “Allosteric control of nuclear hormone receptors” (The Salk Institute for Biological Studies, priority 1995, published 2003).

Biological target: T1, GST-hRXRα (Homo sapiens, UniProt P19793)
T1 construct: made in house
T1 sequence (P19793 1-462): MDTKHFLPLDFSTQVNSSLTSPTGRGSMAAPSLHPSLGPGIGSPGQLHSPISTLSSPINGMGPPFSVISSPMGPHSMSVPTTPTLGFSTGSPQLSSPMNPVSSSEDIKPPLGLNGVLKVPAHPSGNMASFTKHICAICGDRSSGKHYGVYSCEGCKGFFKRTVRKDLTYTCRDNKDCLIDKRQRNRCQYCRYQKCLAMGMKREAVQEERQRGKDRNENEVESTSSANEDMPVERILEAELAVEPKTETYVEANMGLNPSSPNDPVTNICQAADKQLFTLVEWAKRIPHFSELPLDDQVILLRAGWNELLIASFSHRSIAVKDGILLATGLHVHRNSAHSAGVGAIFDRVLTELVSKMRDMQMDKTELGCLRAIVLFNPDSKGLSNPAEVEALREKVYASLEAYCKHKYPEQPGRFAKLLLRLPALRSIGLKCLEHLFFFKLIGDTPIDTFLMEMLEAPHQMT
Assay: Ligand binding assay with GST-RXR (glutathione-sepharose)
Conditions: 50 nM [3H] LG69; 2 μM unlabeled ligand

CC1(C)CCC(C)(C)c2cc(C(=O)Nc3ccc(C(=O)O)cc3)ccc21 [Am580, 4-(5,6,7,8-tetrahydro-5,5,8,8-tetramethyl-2-napthamido) benzoic acid]
competition of [3H] LG69 binding to GST-RXR by unlabeled ligand: not
